Results from patent publication US8247609B2, “Aminoacid derivatives containing a disulfanyl group in the form of mixed disulfanyl and aminopeptidase N inhibitors” (Pharamleads, priority 2005, dated 2012).

Columns and labels:
male Sprague-Dawley rats = assay: Tail-flick test in rats; assay type: in vivo, rat; conditions: compound 15 5 mg/kg, Δ^9 THC 0.375 mg/kg, IV, ethanol/Tween 80/water, 10 min after injection
male OF1 mice = assay: Swim test (Porsolt) in mice; conditions: compound 15 5 mg/kg, Δ^9 THC 0.375 mg/kg, IV 10 min before test; total immobilization time measured for 4 minutes

Compound | Tail-flick test % analgesia (male Sprague-Dawley rats) [%] | Depression/swim test. Mobilization (male OF1 mice)
CCOC(=O)OC(C)OC(=O)CNC(=O)C(CSSC[C@@H](N)CCSC)Cc1ccccc1 (stereo partly shown) [Compound 15] | −4.2 ± 1.9 | 180 ± 8.4
CCCCCc1cc(O)c2c(c1)OC(C)(C)[C@@H]1CCC(C)=C[C@@H]21 [Δ^9 THC, Δ^9 tetrahydrocannabinol, reference compound] | 23.3 ± 2.4 | 206 ± 6.1
